Test results from US20070122395A1, “Genetic and pharmacological regulation of antidepressant-sensitive biogenic amine transporters through PKG/p38 map kinase” (Vanderbilt University, priority 2005, published 2007).
Like-named read-outs stand apart in the source and are kept apart here.

Amino acid sequences for entries named in this document (tags omitted).
UniProt P31652, whole entry: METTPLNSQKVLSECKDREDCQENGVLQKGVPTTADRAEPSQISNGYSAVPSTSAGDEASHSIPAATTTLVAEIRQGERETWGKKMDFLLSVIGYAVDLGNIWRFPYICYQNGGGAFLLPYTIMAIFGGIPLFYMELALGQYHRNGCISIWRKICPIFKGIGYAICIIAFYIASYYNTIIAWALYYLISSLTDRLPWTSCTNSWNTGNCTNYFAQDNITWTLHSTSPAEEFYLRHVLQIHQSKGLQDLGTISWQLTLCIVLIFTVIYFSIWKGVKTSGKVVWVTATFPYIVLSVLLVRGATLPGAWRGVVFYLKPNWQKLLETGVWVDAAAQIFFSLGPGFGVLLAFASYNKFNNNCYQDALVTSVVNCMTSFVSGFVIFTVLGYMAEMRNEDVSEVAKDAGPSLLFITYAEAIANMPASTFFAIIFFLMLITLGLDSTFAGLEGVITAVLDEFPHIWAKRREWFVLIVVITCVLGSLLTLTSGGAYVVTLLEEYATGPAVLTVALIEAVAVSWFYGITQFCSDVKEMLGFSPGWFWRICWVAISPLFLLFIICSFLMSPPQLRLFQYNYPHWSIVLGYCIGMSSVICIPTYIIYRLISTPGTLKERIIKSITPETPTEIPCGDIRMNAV

What was measured:
[1] = system: rat SERT expressed by RBL-2H3 cells; assay: [3H]5-HT transport assay in RBL-2H3 cells; assay type: cell-based
[2] = biological target: T1, native SERT in RN46A cells (Rattus norvegicus, UniProt P31652); assay: [3H]5-HT transport assay in RN46A cells; assay type: cell-based
T1 construct: derived from rat E13 raphenucleus, that expresses native SERT; endogenous in cells; host or cells: RN46A cells

[3] = system: native SERT in human platelets; conditions: anisomycin 1 μm, 10 min
[4] = system: lymphocytes homozygous for the Gly variant (hSERT Gly56); assay: 5-HT uptake in genotyped lymphocyte lines; assay type: cell-based, human
[5] = system: Gly56Ala heterozygous lymphocytes; assay: 5-HT uptake in genotyped lymphocyte lines; assay type: cell-based, human; conditions: Gly56Ala heterozygous cells
SERT in RBL-2H3 cells = biological target: T2, SERT in RBL-2H3 cells (Rattus norvegicus, UniProt P31652); assay: [125I]RTI-55 binding to intact RBL-2H3 cells; assay type: cell-based
T2 construct: As with rat SERT expressed by RBL-2H3 cells; host or cells: RBL-2H3 cells (intact cells, 4° C.)

[6] = system: Ala56 homozygous lymphocyte lines; assay: 5-HT uptake in genotyped lymphocyte lines; assay type: cell-based, human
hSERT = conditions: CHO cells, 10-min anisomycin
[7] = system: native SERT in human platelets; conditions: Zhu et al. (2004a); cited from earlier work

Structure (SMILES): COc1ccc(C[C@H]2NC[C@H](O)[C@H]2OC(C)=O)cc1 [anisomycin]
- concentration at which effect became inhibitory ([1]; 10-min pretreatment): 25 μm
- concentration of peak stimulation ([1]; 10-min pretreatment): 1 μm
- change in maximal transport capacity (Vmax) ([1]; RBL-2H3, anisomycin): no significant change
- stimulation of 5-HT transport activity ([1]; RBL-2H3, anisomycin, H2O2 20 μm): dose- and time-dependent stimulation
- time of decline to basal levels ([1]; anisomycin 1 μm): ≤ 30 min
- time of peak stimulation of 5-HT transport ([1]; anisomycin 1 μm): 10 min
- Km ([1]; read-out: SERT Km for 5-HT, RBL-2H3, anisomycin 1 μm 10 min): 0.628 ± 0.07 µM
- stimulation of 5-HT transport ([2]; 10 min treatment): dose-dependently stimulated 5-HT uptake
- change in maximal transport capacity (Vmax) ([2]; anisomycin): no significant change
- Km ([2]; read-out: SERT Km for 5-HT, anisomycin 1 μm 10 min): 0.396 ± 0.08 µM
- 5-HT uptake after anisomycin [3]: SB203580-sensitive increase in 5-HT uptake
- stimulation of 5-HT transport [4]: stimulated uptake activity
- sensitivity of 5-HT uptake to activator [5]: intermediate sensitivity
- total SERT (paroxetine-displaceable [125I]RTI-55 binding) (SERT in RBL-2H3 cells; acute treatment): does not change
- SERT surface density (5-HT-displaceable [125I]RTI-55 binding) (SERT in RBL-2H3 cells; anisomycin 1 μm, fostriecin 5 nM, NECA 1 μm, 10 min): does not impact
- sensitivity of 5-HT uptake to activator [6]: lacked sensitivity
- anisomycin-modulated 5-HT uptake (hSERT): SB203580-sensitive elevation in 5-HT uptake
- 5-HT uptake after anisomycin [7]: stimulated 5-HT uptake in platelets
